## Yeast mating assay 2: variants of the scFv Ab-95

Values reported by Engelhart et al. 2022, doi:10.1038/s41597-022-01779-4 (FLAb copy).

The target is the same throughout: PDVDLGDISGINAS, from the HR2 region of SARS-CoV-2 spike.

The variants keep the heavy chain, the linker and the frameworks of Ab-95 (scFv order VH, three GGGGS repeats, VL).
VH: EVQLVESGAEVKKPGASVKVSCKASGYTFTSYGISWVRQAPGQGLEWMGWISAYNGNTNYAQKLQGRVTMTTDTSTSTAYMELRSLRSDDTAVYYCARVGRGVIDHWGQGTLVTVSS
VL: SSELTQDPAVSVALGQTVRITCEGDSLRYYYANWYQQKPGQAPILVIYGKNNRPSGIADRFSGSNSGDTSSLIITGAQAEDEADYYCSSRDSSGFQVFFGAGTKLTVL

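The starting antibody came from a phage panning campaign against this peptide. AAYL52 was designed without a model: most single CDR substitutions and a random sample of double and triple ones. In AlphaSeq, yeast of one mating type display the scFv and yeast of the other type display the target. The frequency of each diploid, read from paired DNA barcodes, reflects how well the two displayed proteins bind. Read counts were normalised to the haploid input and turned into Kd by a linear fit to BCL2-family pairs of known affinity, for each replicate. There are three technical replicates.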

Positions count from residue 1 of the parent VL; S89H puts H in place of S.
This list gathers variants with a substitution at S89 (VL, numbered from residue 1).
The Kd shown is the geometric mean over detected replicates; a lower Kd is a better binder.
A pair that was not seen in any replicate is written "no signal"; this usually means weak binding, but a binder can also be missed.
In this assay the parent's reference entry averaged 200 nM; its copy inside this library read 180 nM.

* S89H+R90C+F98N: no signal (0 of 3 replicates)
* S89A+G94Y+F98N: 1.5 µM (3 of 3 replicates)
* N33K+S89T+R90A: 1.1 µM (1 of 3 replicates)
* S26Y+S89K+G94F: 12 µM (1 of 3 replicates)
* K50L+S89E+D91S: 1.5 µM (3 of 3 replicates)
* S89F+V97G: 33 µM (1 of 3 replicates)
* S89M+V97I+F98P: 63 nM (3 of 3 replicates)
* N51C+S89C: 6.1 µM (2 of 3 replicates)
* Y30G+R53D+S89M: 3.8 µM (1 of 3 replicates)
* E23M+N52D+S89I: 180 nM (3 of 3 replicates)

Extract of 2 entries:

* N51C+S89C: 6.1 µM (2 of 3 replicates)
* K50L+S89E+D91S: 1.5 µM (3 of 3 replicates)

Three control strains display no target. For library AAYL52, 28% of the pairings with them gave a signal, with a median of 8.2 µM and one signal in twenty below 800 nM, so weak values seen in few replicates may be background.